Consider 1 molecule from US6093742A, “Inhibitors of p38” (Vertex Pharmaceuticals, Inc., priority 1997, dated 2000).

Chains of the proteins cited; added tags and fusions are not shown.
UniProt Q16539, whole entry: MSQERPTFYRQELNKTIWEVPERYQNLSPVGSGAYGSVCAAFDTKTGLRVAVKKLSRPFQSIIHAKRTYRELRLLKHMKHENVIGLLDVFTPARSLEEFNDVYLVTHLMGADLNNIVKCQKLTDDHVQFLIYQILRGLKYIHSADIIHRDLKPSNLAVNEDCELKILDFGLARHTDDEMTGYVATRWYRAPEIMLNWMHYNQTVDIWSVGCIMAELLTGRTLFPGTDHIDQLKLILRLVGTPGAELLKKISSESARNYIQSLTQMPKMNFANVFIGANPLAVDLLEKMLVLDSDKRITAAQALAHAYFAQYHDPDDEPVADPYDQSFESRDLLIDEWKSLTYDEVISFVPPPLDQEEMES

A word on the IC50: it is the point on the concentration scale where inhibition reaches its midpoint.

The experiment deals with T1, p38 (Homo sapiens, UniProt Q16539).
T1 construct: made in house; host or cells: Trichoplusia ni (Tn-368) High-Five insect cells infected with recombinant baculovirus (virus made in Sf9)
Briefly: p38 inhibition assay: inhibition of phosphorylation of EGF receptor peptide. It is filed as biochemical. As to conditions: activated p38 (5 nM), EGF receptor peptide 200 μM, ATP 100 μM, 30 min at 30° C., pH 7.6, HPLC. The source says: Two splice variants of human p38 kinase, CSBPl and CSBP2, have been identified. Specific oligonucleotide primers were used to amplify the coding region of CSBP2 cDNA using a HeLa cell library (Stratagene) as a template. The polymerase chain reaction product was cloned into the pET-15b vector (Novagen). The baculovirus transfer vector, pVL-(His)6-p38 was constructed by subcloning a XbaI-BamHI fragment of pET15b-(His)6-p38 into the complementary sites in plasmid pVL1392 (Pharmingen).
P38 was activated by combining 0.5 mg/ml p38 with 0.005 mg/ml DD-double mutant MKK6 in Buffer B+10 mM MgCl2, 2 mM ATP, 0.2 mM Na2VO4 for 30 minutes at 20° C. The activation mixture was then loaded onto a 1.0×10 cm MonoQ column (Pharmacia) and eluted with a linear 20 column volume gradient to 1.0 M NaCl in Buffer B. The activated p38 eluted after the ADP and ATP. The activated p38 peak was pooled and dialyzed against buffer B+0.2 mM Na2VO4 to remove the NaCl. The dialyzed protein was adjusted to 1.1M potassium phosphate by addition of a 4.0M stock solution and loaded onto a 1.0×10 cm HIC (Rainin Hydropore) column previously equilibrated in Buffer D (10% glycerol, 20 mM β-glycerophosphate, 2.0 mM DTT)+1.1MK2HPO4. The protein was eluted with a 20 column volume linear gradient to Buffer D+50 mM K2HPO4. […]
The phosphorylated peptide was quantified by HPLC analysis. […]

On to `O=C(Nc1ccccc1)Nc1cc(Cl)c([N+](=O)[O-])cc1O` [Compound 6], for which the IC50 was determined as 140 nM.
